Data taken from patent US8715709B2, “Sustained release intraocular implants and methods for treating ocular neuropathies” (Allergan, Inc., priority 2004, dated 2014).
Where a name gives a salt, the structure may show the parent alone.

Details: rabbit, in vivo
Excerpt: Sampling was done from the anterior chamber for the first five animals after 1 hr, 3 hr, 6 hr, 12 hr, and 24 hr, and from both the anterior chamber and posterior segment of the remaining five animals after 1 hr, 3 hr, 6 hr, 24 hr, and 48 hr. One animal was used for each time point.

Structure (SMILES): CC(C)(C)NC[C@H](O)COc1nsnc1N1CCOCC1 [Timolol Maleate, (−)-1-(tert-butylamino)-3-[(4-morpholino-1,2,5-thiadiazo-3-yl)oxy]-2-propanol maleate, (1:1) salt]
- level at the 6 hour time point relative to that at one hour time point: about 0.13%
